This is a selection; strong and weak results do not stand in their true shares. Some tests of the compounds listed are not included; inactive here does not mean inactive elsewhere. The source made the active and inactive calls.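 Rule for the calls: active = mean replicate score, as percent of positive control median, at least 50; inconclusive = mean below 50 but one replicate at or above 50; inactive = mean and every replicate below 50.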
experiment: kanamycin survival loss of SKKanGAS strain – BacTiter-Glo luminescence, streptokinase expression inhibitor project, primary screen (AID 1662);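 note: strain carries kanamycin resistance gene driven by streptokinase promoter and grows in 40 µg/ml kanamycin; loss of luminescence reflects streptokinase promoter inhibition or plain growth inhibition; 0% = median of DMSO wells and 100% = positive control at its reference dose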; conditions: S. pyogenes SKKanGAS, kanamycin growth, 6 h, at 7.5 µM, stronger effect = higher value

Row | Structure (SMILES) | inhibition
1 | O=C(NCC1(N2CCCCC2)CCCCC1)c1cccc(Cl)c1 | inactive: 1.85%
2 | COc1cccc(C(=O)NCC2(N3CCCCC3)CCCCC2)c1 | inactive: -0.865%
3 | COc1ccc(Cl)cc1C(=O)NCC1(N(C)C)CCCCC1 | inactive: 3.94%
4 | COc1cc(C(=O)NCC2(N(C)C)CCCCC2)c([N+](=O)[O-])cc1OC | inactive: -1.37%
5 | CN(C)C1(CNC(=O)c2ccc(Br)cc2)CCCCC1 | inactive: -1.85%
6 | CN(C)c1cccc(C(=O)NCC2(N(C)C)CCCCC2)c1 | inactive: -5.99%
7 | CC(C)Oc1ccc(C(=O)NCC2(N(C)C)CCCCC2)cc1 | inactive: -0.52%
8 | COc1ccc(Br)c(C(=O)NCC2(N3CCCCC3)CCCCC2)c1 | inactive: -9.82%
9 | O=C(OC1CN2CCC1CC2)C(CO)(c1ccccc1)c1ccccc1 (centres undefined) | inactive: -9.98%
10 | Cc1ccc(C(=O)NCC2(N3CCCCC3)CCCCC2)cc1 | inactive: 1.05%
11 | CC(C)N1C(=O)CC2(CCN(CCOC(=O)C(O)(c3ccccc3)c3ccccc3)CC2)C1=O | inactive: -0.125%
12 | CCN(CC)CC(C)C(C)OC(=O)C(O)(c1ccccc1)c1ccccc1 (centres undefined) | inactive: 0.796%
13 | COc1cc(SC)ccc1C(=O)NCC1(N(C)C)CCCCC1 | inactive: -4.94%
14 | CN1[C@@H]2CC[C@H]1CC(OC(=O)C(O)(c1ccccc1)c1ccccc1)C2 (some centres undefined) | inactive: -3.99%
15 | O=C(NCC1(N2CCCCC2)CCCCC1)c1cc([N+](=O)[O-])ccc1Cl | inactive: 3.29%
16 | CCN1CCCC(OC(=O)C2(O)c3ccccc3C=Cc3ccccc32)C1 (centres undefined) | inactive: -10.5%
17 | Cc1cc(C(=O)NCC2(N3CCCCC3)CCCCC2)ccc1[N+](=O)[O-] | inactive: -0.341%
18 | O=C(NCC1(N2CCCCC2)CCCCC1)c1cccc(Br)c1 | inactive: -2.57%
19 | COc1ccc(C(=O)NCC2(N(C)C)CCCCC2)cc1 | inactive: 0.981%
20 | C=CCN1CCN(CCOC(=O)C(O)(c2ccccc2)c2ccccc2)CC1 | inactive: -2.37%
21 | O=C(NCC1(N2CCCCC2)CCCCC1)c1cc(F)c(F)cc1Cl | inactive: 1.43%
22 | Cc1ccccc1C(=O)NCC1(N2CCCCC2)CCCCC1 | inactive: -2.36%
23 | CN(C)c1ccc(C(=O)NCC2(N(C)C)CCCCC2)cc1 | inactive: -2.13%
24 | CN(C)C1CCCC1OC(=O)C(O)(c1ccccc1)c1ccccc1 (centres undefined) | inactive: 4.85%
